Source: patent US20240122941A1, “THERAPY BASED ON SYNTHETIC LETHALITY IN SWI/SNF COMPLEX-DYSFUNCTION CANCER” (NATIONAL CANCER CENTER, priority 2020, published 2024)

Chains of the proteins cited; added tags and fusions are not shown. Residues count along the entry.
UniProt Q92793, 1085-1192: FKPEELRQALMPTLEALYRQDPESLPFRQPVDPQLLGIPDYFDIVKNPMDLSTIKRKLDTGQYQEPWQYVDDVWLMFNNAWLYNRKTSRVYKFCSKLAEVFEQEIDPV

Legend:
[1] = tested on: SMARCA2/A4 deficient cell group versus SMARCA2/A4 wild-type cell group; assay: Experiment comparing sensitivity depending on the presence/absence of SMARCA2/A4; format: cell-based; settings: 6 days culture, CellTiter-Glo, FIG. 8; result in words
Description: Cytotoxic activity of a CBP/P300 inhibitor on SMARCA2/A4 deficient cells, i.e., A427 cells (pulmonary adenocarcinoma derived), H23 cells (pulmonary adenocarcinoma derived), COV434 cells (ovarian granulosa tumor derived), TOV112D cells (small cell ovarian cancer derived), SW13 cells (adrenocortical cancer derived) and DMS114 cells (small cell lung cancer derived), and SMARCA2/A4 wild-type cells, i.e., H1048 cells, H460 cells, 786-O cells, H2228 cells, H2009 cells, and H358 cells was compared.

[2] = tested on: SS18-SSX fusion cancer cell group versus SS18/SSX wild-type cell group; assay: Experiment comparing sensitivity depending on the presence/absence of SS18-SSX fusion gene; format: cell-based; settings: 6 days culture, CellTiter-Glo, FIG. 11; result in words
Description: Cytotoxic activity of a CRP/P300 inhibitor on SS18-SSX fusion cancer cells, i.e., Aska-SS cells (synovial sarcoma derived), Fuji cells (synovial sarcoma derived), YaFuss cells (synovial sarcoma derived), HS-SY-II cells (synovial sarcoma derived), and Yamato-SS cells (synovial sarcoma derived), and SS18/SSX wild-type cells, i.e., H1048 cells, H460 cells, 786-O cells, H2228 cells, H2009 cells, and H358 cells, was compared.

CBP bromodomain = CBP bromodomain (Homo sapiens (Human), UniProt Q92793); assay: BRD inhibition experiment, CBP bromodomain TR-FRET Assay Kit
[3] = tested on: JMU-RTK-2 cells (malignant rhabdoid tumor derived, SMARCB1 deficient); assay: Selectivity in cell growth suppression, JMU-RTK-2 cells

Compound: CO[C@H]1CC[C@H](n2c([C@@H]3CCCC(=O)N3c3ccc(F)c(F)c3)nc3cc(-c4c(C)noc4C)ccc32)CC1 [CCS-1477]
- IC50 value for the SMARCA2/A4 deficient cell group compared with the SMARCA2/A4 wild-type cell group [1]: less than the IC50 value for the SMARCA2/A4 wild-type cell group
- IC50 value for the SS18-SSX fusion cancer cell group compared with the SS18/SSX wild-type cell group [2]: less than the IC50 value for the SS18/SSX wild-type cell group

Compound: COc1ccc(CCc2nc3cc(-c4c(C)noc4C)ccc3n2C[C@H](C)N2CCOCC2)cc1Cl [SGC-CBP30, reference compound]
- inhibition of BRD function (CBP bromodomain): inhibit BRD function

Compound: CO[C@H]1CC[C@H](n2c([C@@H]3CCCC(=O)N3c3ccc(F)c(F)c3)nc3cc(-c4c(C)noc4C)ccc32)CC1 [Compound 9]
- Selective Index [3]: 5.6
- IC50 (CBP bromodomain): < 25 nM
